{"sequences": {"note": "By UniProt entry, the sequences of proteins in these tests, tags left out. Where a name states a change or a piece, a line headed by the entry shows the natural chain unless it says otherwise.", "UniProt P55210": "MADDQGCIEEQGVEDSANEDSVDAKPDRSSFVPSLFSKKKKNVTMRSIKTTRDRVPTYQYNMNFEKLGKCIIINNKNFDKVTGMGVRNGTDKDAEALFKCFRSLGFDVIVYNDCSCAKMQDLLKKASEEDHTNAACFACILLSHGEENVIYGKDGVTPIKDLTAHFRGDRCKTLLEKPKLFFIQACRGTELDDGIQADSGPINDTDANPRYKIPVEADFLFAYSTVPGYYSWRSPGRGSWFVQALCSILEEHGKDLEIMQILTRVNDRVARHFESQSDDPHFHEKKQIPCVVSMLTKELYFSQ"}, "source": "PubChem BioAssay AID463210", "about": "(The Scripps Research Institute Molecular Screening Center, 2010)", "note": "This is a selection; strong and weak results do not stand in their true shares. The source made the active and inactive calls.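 How the source made its calls: active means percent activation above the screen-wide mean plus 3 SD (cut at about 25% in these data); inactive means the rest.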", "data": [{"target": "Caspase-7 (Homo sapiens) (UniProt P55210)", "experiment": "procaspase-7 activators, primary screen, counter-screen for procaspase-3 activator project, biochemical, absorbance, HTS, human (AID 463210)", "conditions": "recombinant procaspase-7, Ac-DEVD-pNA absorbance 405 nm; at 8.5 µM; stronger effect = higher value; D23A/D198A/D206A triple mutant, cannot self-cleave; scale: DMSO 0, 5 µM enzyme 100", "values": [{"smiles": "O=P(Nc1ccccn1)(c1ccc(Br)cc1)c1ccc(Br)cc1", "activation": "inactive: -2.29%"}, {"smiles": "CN(C)C1(CNC(=O)c2ccc(Cl)c(S(N)(=O)=O)c2)CCCCC1", "activation": "inactive: -10.8%"}, {"smiles": "C[C@H]1OP(=O)(Oc2ccccc2)[C@H](O)[C@H](O)[C@H]1N=[N+]=[N-]", "note": "(some centres undefined)", "activation": "inactive: 5.43%"}, {"smiles": "O=P(Nc1nc2ccccc2s1)(c1ccccc1)c1ccccc1", "activation": "inactive: 3.62%"}, {"smiles": "O=[As](O)(c1ccccc1)c1ccc(O)cc1", "activation": "inactive: 4.81%"}, {"smiles": "O=[N+]([O-])c1ccc(O)c(/C=N/Nc2ccc([N+](=O)[O-])cc2[N+](=O)[O-])c1", "activation": "inactive: 4.5%"}, {"smiles": "O=[N+]([O-])c1ncn(CCn2cnc([N+](=O)[O-])n2)n1", "activation": "inactive: 10.1%"}, {"smiles": "CC(=O)NC(SC(=S)N(C)C)C(Cl)(Cl)Cl", "note": "(centres undefined)", "activation": "inactive: -7.29%"}, {"smiles": "O=C(OC1CN2CCC1CC2)c1cccc(Cl)c1", "note": "(centres undefined)", "activation": "inactive: 15.1%"}, {"smiles": "Nc1ccc([As](=O)(O)c2ccc([N+](=O)[O-])cc2)cc1", "activation": "inactive: 3.2%"}, {"smiles": "C(Cc1nn[nH]n1)Cc1nn[nH]n1", "activation": "inactive: -1.38%"}, {"smiles": "CC(C)C(=O)NC(Sc1ccccc1)C(Cl)(Cl)Cl", "note": "(centres undefined)", "activation": "inactive: 1.12%"}, {"smiles": "O=P(Nc1nccs1)(c1ccccc1)c1ccccc1", "activation": "inactive: 7.75%"}, {"smiles": "c1nnnn1CCn1cnnn1", "activation": "inactive: -1.35%"}, {"smiles": "CCOc1ccc(C2=NCC(CBr)S2)cc1", "note": "(centres undefined)", "activation": "inactive: -11.2%"}, {"smiles": "O=P1(Nc2nc3ccc(Cl)cc3s2)COc2ccccc2O1", "note": "(centres undefined)", "activation": "inactive: 2.86%"}, {"smiles": "CC(C)(C)C(=O)NC(Sc1ccccc1)C(Cl)(Cl)Cl", "note": "(centres undefined)", "activation": "inactive: 3.26%"}, {"smiles": "C[C@@H]1C=CCP(=O)(Oc2ccccc2)O1", "note": "(some centres undefined)", "activation": "inactive: 2.24%"}, {"smiles": "C[C@H]1OP(=O)(Oc2ccccc2)C[C@@H]2O[C@@H]21", "note": "(some centres undefined)", "activation": "inactive: 8.74%"}, {"smiles": "Cc1ccccc1CN(C)C(=O)COC(=O)C(O)(c1ccccc1)c1ccccc1", "activation": "inactive: -0.8%"}, {"smiles": "CC(=O)c1ccc(N2CC2c2ccncc2)cc1", "note": "(centres undefined)", "activation": "inactive: -6.85%"}, {"smiles": "CC(=O)Nc1ccc(Oc2c([N+](=O)[O-])cc([N+](=O)[O-])cc2[N+](=O)[O-])cc1", "activation": "inactive: -0.66%"}, {"smiles": "CC(=O)Nc1ccc([As](=O)(O)O)c(O)c1", "activation": "inactive: -0.74%"}, {"smiles": "CCOC(=O)NC(Sc1ccccc1)C(Cl)(Cl)Cl", "note": "(centres undefined)", "activation": "inactive: -1.19%"}, {"smiles": "Cc1ccc(NP(=O)(Oc2cccc(C)c2)Oc2cccc(C)c2)nc1", "activation": "inactive: -5.7%"}, {"smiles": "c1ccc(-c2nn[nH]n2)c(-c2nn[nH]n2)c1", "activation": "inactive: -8.45%"}, {"smiles": "CCNC(=S)/N=C(\\N)N[N+](=O)[O-]", "activation": "inactive: 17%"}, {"smiles": "O=C(NC1CCS(=O)(=O)C1)NP(=S)(Oc1ccccc1)Oc1ccccc1", "note": "(centres undefined)", "activation": "inactive: 2.38%"}, {"smiles": "CCC(=O)N1C2C3N(C(=O)CC)C1C1N(C(=O)CC)C(C(N1C(=O)CC)N3C(=O)CC)N2C(=O)CC", "activation": "inactive: 4.95%"}, {"smiles": "O=C(OC1CN2CCC1CC2)c1ccccc1", "note": "(centres undefined)", "activation": "inactive: 0.01%"}, {"smiles": "Cc1ccc(OP(=O)(Nc2ccccn2)Oc2ccc(C)cc2)cc1", "activation": "inactive: 3.25%"}, {"smiles": "CC(=O)NC(SC(=S)N(CC(C)C)CC(C)C)C(Cl)(Cl)Cl", "note": "(centres undefined)", "activation": "inactive: -9.84%"}, {"smiles": "COC(=O)c1cc2c(s1)N=C(c1ccccc1)N(C)P2(=O)N1CCOCC1", "note": "(centres undefined)", "activation": "inactive: 5.1%"}, {"smiles": "CN(C)C(=O)Oc1noc2ccccc12", "activation": "inactive: 13.6%"}, {"smiles": "Cc1ccccc1OP(=O)(Nc1ccccn1)Oc1ccccc1C", "activation": "inactive: -15.1%"}, {"smiles": "CC(NC(=O)COC(=O)C(O)(c1ccccc1)c1ccccc1)c1ccccc1", "note": "(centres undefined)", "activation": "inactive: 7.9%"}, {"smiles": "O=P(Nc1nc2ccc(Cl)cc2s1)(c1ccccc1)c1ccccc1", "activation": "inactive: 4.6%"}, {"smiles": "O=C(O)c1ccccc1[As](=O)(O)O", "activation": "inactive: -3.48%"}, {"smiles": "CC(=O)Nc1ccc([As](=O)(O)O)cc1", "activation": "inactive: -9.04%"}, {"smiles": "Cc1ccc(NP(=O)(Oc2ccccc2F)Oc2ccccc2F)nc1", "activation": "inactive: 10.6%"}, {"smiles": "CN(C(=O)Cc1ccc(Cl)c(Cl)c1)[C@H]1CCCC[C@@H]1N1CCCC1", "activation": "inactive: 5.06%"}, {"smiles": "CCOP(=O)(Nc1ccccc1)OCC", "activation": "inactive: 5.99%"}, {"smiles": "Cc1cc(SC(NC(=O)c2ccc(F)cc2)C(Cl)(Cl)Cl)ncn1", "note": "(centres undefined)", "activation": "inactive: -27.9%"}, {"smiles": "O=[N+]([O-])c1cc([N+](=O)[O-])c(CCN2CCOCC2)c([N+](=O)[O-])c1", "activation": "inactive: -4.8%"}, {"smiles": "CCN(N=Nc1nonc1N)c1nonc1N", "activation": "inactive: -0.65%"}, {"smiles": "Cc1ccc(N/C(=N/P(=O)(N2CCOCC2)N2CCOCC2)N2CCOCC2)cc1", "activation": "inactive: 5.11%"}, {"smiles": "CN(C(=O)Cc1ccc(Cl)c(Cl)c1)[C@H]1CCCC[C@H]1N1CCCC1", "activation": "inactive: 13.2%"}, {"smiles": "NC(=O)c1cc([N+](=O)[O-])cc([N+](=O)[O-])c1N", "activation": "inactive: -1.51%"}, {"smiles": "Clc1ccc(Cl)c(NC2=NCC(CBr)S2)c1", "note": "(centres undefined)", "activation": "inactive: 13.9%"}, {"smiles": "CN1CCCC(OC(=O)C(c2ccccc2)c2ccccc2)C1", "note": "(centres undefined)", "activation": "inactive: -0.58%"}, {"smiles": "Cc1ccc(OP(=O)(Nc2nccs2)Oc2ccc(C)cc2)cc1", "activation": "inactive: 2.93%"}, {"smiles": "COc1ccccc1OP(=O)(Nc1ccc(C)cn1)Oc1ccccc1OC", "activation": "inactive: -0.98%"}, {"smiles": "Cc1c2non([O-])c-2c(C)[n+](=O)[n+]1[O-]", "activation": "inactive: -28.2%"}, {"smiles": "O=C(NC(Sc1ccncn1)C(Cl)(Cl)Cl)c1ccccc1", "note": "(centres undefined)", "activation": "inactive: -23.7%"}, {"smiles": "Oc1ccccc1CNc1ccccn1", "activation": "inactive: 1.61%"}, {"smiles": "CC(C)CC(=O)NC(Sc1ccc(Cl)cc1)C(Cl)(Cl)Cl", "note": "(centres undefined)", "activation": "inactive: 0.65%"}, {"smiles": "Nc1cc(N)c2nonc2c1[N+](=O)[O-]", "activation": "inactive: -1.46%"}, {"smiles": "COc1ccc(C2=NCC(CBr)S2)cc1", "note": "(centres undefined)", "activation": "inactive: -21.1%"}, {"smiles": "CCc1nc2c(n1)c1c(non1O)c1c2no[n+]1[O-]", "activation": "inactive: -4.7%"}, {"smiles": "O=[N+]([O-])c1cc([N+](=O)[O-])c(CCNc2ccccc2)c([N+](=O)[O-])c1", "activation": "inactive: -8.19%"}, {"smiles": "Cc1ccc(NP(=O)(Oc2ccccc2)Oc2ccccc2)nc1", "activation": "inactive: -1.43%"}, {"smiles": "O=[N+]([O-])c1cccc2n[nH]nc12", "activation": "inactive: 15.2%"}, {"smiles": "CC(=O)N1C2C3N(C(C)=O)C1C1N(C(C)=O)C(C(N1C(C)=O)N3C(C)=O)N2C(C)=O", "activation": "inactive: 16.6%"}, {"smiles": "CCN(/C(=N/P(=O)(N1CCOCC1)N1CCOCC1)N1CCOCC1)c1ccc(OC)cc1", "activation": "inactive: -10.1%"}]}]}
